System: tubulin
Settings: 5 µM

SMILES: COc1c(OC(=O)c2ccccc2)cc2c(c1OC)-c1ccc(SC)c(=O)cc1[C@@H](NC(C)=O)CC2 [3-benzoyl-3-demethylthiocolchicine]
- Inhibition of [³H]colchicine binding % inhibition: 19%

Reference: patent publication EP0356137A2 (priority 1988, dated 1990)
